Reference: ChEMBL document CHEMBL1137205, “Rational approaches to discovery of orally active and brain-penetrable quinazolinone inhibitors of poly(ADP-ribose)polymerase” (J Med Chem, 2004)

Chains of the proteins cited; added tags and fusions are not shown.
UniProt P09874, whole entry: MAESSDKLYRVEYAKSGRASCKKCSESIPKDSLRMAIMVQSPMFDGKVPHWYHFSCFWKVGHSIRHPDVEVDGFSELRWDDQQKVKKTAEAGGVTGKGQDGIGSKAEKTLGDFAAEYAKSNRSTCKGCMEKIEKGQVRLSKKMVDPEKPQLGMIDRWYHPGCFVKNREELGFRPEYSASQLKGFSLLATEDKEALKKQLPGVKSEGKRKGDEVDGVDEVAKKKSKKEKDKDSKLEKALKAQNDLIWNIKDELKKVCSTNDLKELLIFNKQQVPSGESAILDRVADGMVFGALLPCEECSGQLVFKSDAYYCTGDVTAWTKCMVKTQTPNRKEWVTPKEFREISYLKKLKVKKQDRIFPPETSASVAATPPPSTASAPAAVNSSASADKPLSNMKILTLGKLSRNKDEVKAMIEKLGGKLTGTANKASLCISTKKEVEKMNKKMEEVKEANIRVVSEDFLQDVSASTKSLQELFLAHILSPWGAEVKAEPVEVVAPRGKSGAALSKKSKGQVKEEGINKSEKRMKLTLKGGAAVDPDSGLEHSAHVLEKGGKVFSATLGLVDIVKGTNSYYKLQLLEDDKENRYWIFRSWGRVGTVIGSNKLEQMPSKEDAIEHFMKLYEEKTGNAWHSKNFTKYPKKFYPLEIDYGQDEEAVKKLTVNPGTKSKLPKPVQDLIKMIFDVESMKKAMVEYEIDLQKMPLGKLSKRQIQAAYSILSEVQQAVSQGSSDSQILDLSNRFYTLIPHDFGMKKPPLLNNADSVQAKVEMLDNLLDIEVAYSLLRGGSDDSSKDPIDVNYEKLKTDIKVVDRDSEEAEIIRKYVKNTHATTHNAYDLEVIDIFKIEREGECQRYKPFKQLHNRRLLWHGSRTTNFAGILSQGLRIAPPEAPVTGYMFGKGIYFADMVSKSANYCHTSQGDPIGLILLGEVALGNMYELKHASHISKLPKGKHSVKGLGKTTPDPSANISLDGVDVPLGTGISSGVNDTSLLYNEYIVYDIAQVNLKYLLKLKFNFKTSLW

Target: Poly [ADP-ribose] polymerase 1 (Homo sapiens, UniProt P09874)
Experiment: In vitro inhibitory concentration against human recombinant Poly (ADP-ribose) polymerase 1

## Oc1nc(CCCN2CCN(c3ccccc3)CC2)nc2ccccc12
  IC50: 71 nM
